Like-named read-outs stand apart in the source and are kept apart here.

Our source for the IC50 values is US9611297B1, “Compositions and methods for the treatment of cast nephropathy and related conditions” (Thrasos Therapeutics Inc., priority 2016, dated 2017).

The target in assay [1] is T1, uromodulin binding to light chain BER (subtype lambda) (Homo sapiens, UniProt P07911).
T1 construct: Uromodulin was precipitated from fresh urine from healthy donors using 0.58M NaCl; from tissue; host or cells: urine of healthy human donors (uromodulin); SP2/0 cells (light chain BER)
Description: ELISA: inhibition of biotin-uromodulin binding to plate-coated light chain clone BER. As to the method:
Uromodulin was precipitated from fresh urine from healthy donors using 0.58M NaCl. The precipitate was then washed with 0.58M NaCl and resuspended in water. […] Samples were then stored at −20° C. without lyophilization.
(§1) Enzyme-linked immunosorbant assays (ELISA) were performed on the disclosed peptides. Plates were coated with the following light chain clones overnight at 4° C.: 0.05 uM BER (subtype lambda, isolated from SP2/0 cells), 0.2 uM ROC (subtype kappa, isolated from CHO cells), and 0.3 uM BEN (subtype lambda, isolated from CHO cells). The plates were washed and treated with bovine serum albumin (BSA) overnight at 4° C. For peptide plates, 10 nM biotin-uromodulin was mixed with peptide overnight at 4° C.

For assay [2], the target named is T2, uromodulin binding to light chain ROC (subtype kappa) (Homo sapiens, UniProt P07911).
T2 construct: Uromodulin was precipitated from fresh urine from healthy donors using 0.58M NaCl; from tissue; host or cells: urine of healthy human donors (uromodulin); CHO cells (light chain ROC)
Description: ELISA: inhibition of biotin-uromodulin binding to plate-coated light chain clone ROC. On the procedure: Uromodulin was precipitated from fresh urine from healthy donors using 0.58M NaCl. The precipitate was then washed with 0.58M NaCl and resuspended in water. The uromodulin was dialyzed extensively against water to remove salt and other contaminants (MWCo=50 KD). Samples were then stored at −20° C. without lyophilization. Good overall purity was seen by gel electrophoresis.
as §1
On the technique in general: An ELISA detects its analyte on a solid surface through an enzyme-linked reagent.

The mark [3] stands for this setting: light chain BER 0.05 uM coated, 10 nM biotin-uromodulin, read-out: Binding Inhibition (IC50 uM) BER.

Usually IC50 stands for the concentration that inhibits the measured activity by half. Consider `CC(C)C[C@@H]1NC(=O)[C@H](CO)NC(=O)[C@H](CC(=O)O)NC(=O)[C@H](CC(=O)O)NC(=O)[C@H](Cc2c[nH]c3ccccc23)NC(=O)[C@H](C)NC(=O)[C@H](C)NC(=O)[C@@H](NC(=O)CCCCCN)CSSC[C@@H](C(=O)N[C@@H](CCCCN)C(=O)N[C@@H](CCCCN)C(N)=O)NC(=O)[C@H](C(C)C)NC(=O)[C@@H]2CCCN2C(=O)CNC(=O)[C@H](CC(N)=O)NC1=O` [compound 2], for which the IC50 in assay [1] and in assay [2] was no less than 500 µM throughout.

For `CC(C)C[C@@H]1NC(=O)[C@@H](NC(=O)CCCCCN)CSSC[C@@H](C(=O)N[C@@H](CCCCN)C(=O)N[C@@H](CCCCN)C(N)=O)NC(=O)[C@H](C(C)C)NC(=O)[C@H](Cc2ccc(O)cc2)NC(=O)[C@H](CC(C)C)NC(=O)[C@H](Cc2ccc(O)cc2)NC(=O)[C@H](CO)NC(=O)CNC(=O)[C@H](CO)NC(=O)[C@H](CO)NC(=O)[C@H](CC(=O)O)NC(=O)[C@H](C)NC(=O)[C@H](CO)NC1=O` [compound 4], the IC50 in assay [1] and in assay [2] was no less than 500 µM in each case.

On to `CC(C)C[C@@H]1NC(=O)[C@H]([C@@H](C)O)NC(=O)[C@H](CC(N)=O)NC(=O)[C@H](CC(=O)O)NC(=O)[C@H](Cc2ccc(O)cc2)NC(=O)[C@H](CO)NC(=O)[C@H](CCC(N)=O)NC(=O)[C@@H](NC(=O)CCCCCN)CSSC[C@@H](C(=O)N[C@@H](CCCCN)C(=O)N[C@@H](CCCCN)C(N)=O)NC(=O)[C@H](C(C)C)NC(=O)[C@H](Cc2ccc(O)cc2)NC(=O)[C@H](CO)NC(=O)CNC(=O)[C@H](CO)NC1=O` [compound 6], for which the half-maximal inhibitory concentration (IC50) in assay [1] and in assay [2] was greater than 120 µM in each case.

`CC(C)C[C@@H]1NC(=O)[C@H](CO)NC(=O)CNC(=O)[C@H](CO)NC(=O)[C@H](CC(C)C)NC(=O)[C@H]([C@@H](C)O)NC(=O)[C@H](CC(N)=O)NC(=O)[C@H](CC(=O)O)NC(=O)[C@H](Cc2ccc(O)cc2)NC(=O)[C@H](CO)NC(=O)[C@H](CCC(N)=O)NC(=O)[C@@H](NC(=O)CCCCCN)CSSC[C@@H](C(=O)N[C@@H](CCCCN)C(=O)N[C@@H](CCCCN)C(N)=O)NC1=O` [compound 7]: the IC50 in assay [1] and in assay [2] was no less than 500 µM throughout.

As to `CC(C)[C@H](NC(=O)[C@H](CC(N)=O)NC(=O)[C@H](CCCNC(=N)N)NC(=O)[C@H](C)NC(=O)[C@H](CC(=O)O)NC(=O)[C@H](Cc1ccc(O)cc1)NC(=O)[C@H](CO)NC(=O)[C@H](CCC(N)=O)NC(=O)[C@H](CS)NC(=O)CCCCCN)C(N)=O` [compound 8], the half-inhibitory concentration (IC50) in assay [1] and in assay [2] was no less than 500 µM in each case.

For `NCCCCCC(=O)N[C@@H](CS)C(=O)N[C@@H](CCC(N)=O)C(=O)N[C@@H](CO)C(=O)N[C@@H](Cc1ccc(O)cc1)C(=O)N[C@@H](CC(=O)O)C(=O)N[C@@H](Cc1c[nH]cn1)C(=O)N[C@@H](CC(N)=O)C(=O)N[C@@H](CC(N)=O)C(=O)N[C@@H](CCC(N)=O)C(N)=O` [compound 9], the IC50 in assay [1] and in assay [2] was no less than 500 µM in each case.

On to `CC(C)[C@@H]1NC(=O)CNC(=O)[C@H](CCC(=O)O)NC(=O)[C@H](CC(N)=O)NC(=O)[C@H]([C@@H](C)O)NC(=O)[C@H](CO)NC(=O)[C@H](CC(=O)O)NC(=O)[C@H](Cc2ccc(O)cc2)NC(=O)[C@H](CO)NC(=O)[C@H](CCC(N)=O)NC(=O)[C@@H](NC(=O)CCCCCN)CSSC[C@@H](C(=O)N[C@@H](CCCCN)C(=O)N[C@@H](CCCCN)C(N)=O)NC1=O` [compound 10], for which the IC50 in assay [1] and in assay [2] was no less than 500 µM each time.

With `C[C@@H]1NC(=O)[C@H]([C@@H](C)O)NC(=O)[C@H](CO)NC(=O)[C@H](Cc2ccc(O)cc2)NC(=O)[C@H](CCC(N)=O)NC(=O)[C@H](CCC(N)=O)NC(=O)[C@@H](NC(=O)CCCCCN)CSSC[C@@H](C(=O)N[C@@H](CCCCN)C(=O)N[C@@H](CCCCN)C(N)=O)NC(=O)[C@H]([C@@H](C)O)NC(=O)[C@H](Cc2c[nH]c3ccccc23)NC(=O)[C@@H]2CCCN2C1=O` [compound 15], the IC50 in assay [1] and in assay [2] was no less than 500 µM in each case.

`C[C@@H]1NC(=O)[C@H](CO)NC(=O)[C@H](Cc2ccc(O)cc2)NC(=O)[C@H](Cc2ccc(O)cc2)NC(=O)[C@H](CCC(N)=O)NC(=O)[C@H](CCC(N)=O)NC(=O)[C@@H](NC(=O)CCCCCN)CSSC[C@@H](C(=O)N[C@@H](CCCCN)C(=O)N[C@@H](CCCCN)C(N)=O)NC(=O)[C@H]([C@@H](C)O)NC(=O)[C@@H]2CCCN2C(=O)[C@@H]2CCCN2C1=O` [compound 16]: the IC50 in assay [1] was no less than 500 µM; in assay [2] it was greater than 120 µM.

On to `C[C@@H](O)[C@@H]1NC(=O)[C@H](Cc2c[nH]c3ccccc23)NC(=O)[C@@H]2CCCN2C(=O)[C@H](Cc2ccc(O)cc2)NC(=O)[C@H](CC(N)=O)NC(=O)[C@H](CCCCN)NC(=O)[C@H](Cc2ccc(O)cc2)NC(=O)[C@H](CCC(N)=O)NC(=O)[C@H](CCC(N)=O)NC(=O)[C@@H](NC(=O)CCCCCN)CSSC[C@@H](C(=O)N[C@@H](CCCCN)C(=O)N[C@@H](CCCCN)C(N)=O)NC1=O` [compound 17], for which the IC50 in assay [1] was no less than 500 µM; in assay [2], greater than 120 µM.

Molecule `CC[C@H](C)[C@@H]1NC(=O)[C@H](CO)NC(=O)[C@H](Cc2ccc(O)cc2)NC(=O)[C@H](CO)NC(=O)[C@H](CCC(N)=O)NC(=O)[C@H](CCC(N)=O)NC(=O)[C@@H](NC(=O)CCCCCN)CSSC[C@@H](C(=O)N[C@H](CCCCN)C(=O)N[C@H](CCCCN)C(N)=O)NC(=O)[C@H]([C@@H](C)O)NC(=O)[C@H](Cc2ccc(O)cc2)NC(=O)[C@@H]2CCCN2C1=O` [compound 21] displayed an IC50 in assay [1] of 49.8 µM.

`CC[C@H](C)[C@@H]1NC(=O)[C@H](CO)NC(=O)[C@H](Cc2ccc(O)cc2)NC(=O)[C@H](CO)NC(=O)[C@H](CCC(N)=O)NC(=O)[C@H](CCC(=O)O)NC(=O)[C@@H](NC(=O)CCCCCN)CSSC[C@@H](C(=O)N[C@@H](CCCCN)C(=O)N[C@@H](CCCCN)C(N)=O)NC(=O)[C@H]([C@@H](C)O)NC(=O)[C@H](Cc2ccc(O)cc2)NC(=O)[C@@H]2CCCN2C1=O` [compound 28] showed an IC50 in assay [1] of 24.9 µM.

Turning to `CC[C@H](C)[C@@H]1NC(=O)[C@H](CO)NC(=O)[C@H](Cc2ccc(O)cc2)NC(=O)[C@H](CCC(=O)O)NC(=O)[C@H](CCC(N)=O)NC(=O)[C@H](CCC(N)=O)NC(=O)[C@@H](NC(=O)CCCCCN)CSSC[C@@H](C(=O)N[C@@H](CCCCN)C(=O)N[C@@H](CCCCN)C(N)=O)NC(=O)[C@H]([C@@H](C)O)NC(=O)[C@H](Cc2ccc(O)cc2)NC(=O)[C@@H]2CCCN2C1=O` [compound 30], the values for the IC50 in assay [1] and in assay [2] were 26.5 µM and 25.9 µM, respectively.

`CC[C@H](C)[C@@H]1NC(=O)[C@H](CO)NC(=O)[C@H](CCC(=O)O)NC(=O)[C@H](CO)NC(=O)[C@H](CCC(N)=O)NC(=O)[C@H](CCC(N)=O)NC(=O)[C@@H](NC(=O)CCCCCN)CSSC[C@@H](C(=O)N[C@@H](CCCCN)C(=O)N[C@@H](CCCCN)C(N)=O)NC(=O)[C@H]([C@@H](C)O)NC(=O)[C@H](Cc2ccc(O)cc2)NC(=O)[C@@H]2CCCN2C1=O` [compound 31] showed an IC50 in assay [1] of 25.9 µM.

`CC[C@H](C)[C@@H]1NC(=O)[C@H](CO)NC(=O)[C@H](Cc2ccc(O)cc2)NC(=O)[C@H](CO)NC(=O)[C@H](CCC(N)=O)NC(=O)[C@H](CCCNC(=N)N)NC(=O)[C@@H](NC(=O)CCCCCN)CSSC[C@@H](C(=O)N[C@@H](CCCCN)C(=O)N[C@@H](CCCCN)C(N)=O)NC(=O)[C@H]([C@@H](C)O)NC(=O)[C@H](Cc2ccc(O)cc2)NC(=O)[C@@H]2CCCN2C1=O` [compound 37] displayed an IC50 in assay [1] of 49.8 µM.

`CC[C@H](C)[C@@H]1NC(=O)[C@H](CCCNC(=N)N)NC(=O)[C@H](Cc2ccc(O)cc2)NC(=O)[C@H](CO)NC(=O)[C@H](CCC(N)=O)NC(=O)[C@H](CCC(N)=O)NC(=O)[C@@H](NC(=O)CCCCCN)CSSC[C@@H](C(=O)N[C@@H](CCCCN)C(=O)N[C@@H](CCCCN)C(N)=O)NC(=O)[C@H]([C@@H](C)O)NC(=O)[C@H](Cc2ccc(O)cc2)NC(=O)[C@@H]2CCCN2C1=O` [compound 41]: the IC50 in assay [1] turned out to be 20.9 µM.

Consider `CC[C@H](C)[C@@H]1NC(=O)[C@H](CO)NC(=O)[C@H](Cc2ccc(O)cc2)NC(=O)[C@H](CO)NC(=O)[C@H](CCC(N)=O)NC(=O)[C@H](CCC(N)=O)NC(=O)[C@@H](NC(=O)CCCCCN)CSSC[C@@H](C(=O)N[C@@H](CCCCN)C(=O)N[C@@H](CCCCN)C(N)=O)NC(=O)[C@H]([C@@H](C)O)NC(=O)[C@H](CCCNC(=N)N)NC(=O)[C@@H]2CCCN2C1=O` [compound 44], for which, in assay [1], the IC50 was determined as 24.9 µM.

With `CC[C@H](C)[C@@H]1NC(=O)[C@@H]2CCCN2C(=O)[C@H](CC(C)C)NC(=O)[C@H](CO)NC(=O)[C@H](Cc2ccc(O)cc2)NC(=O)[C@H](CCC(N)=O)NC(=O)[C@H](CCC(N)=O)NC(=O)[C@@H](NC(=O)CCCCCN)CSSC[C@@H](C(=O)N[C@H](CCCCN)C(=O)N[C@H](CCCCN)C(N)=O)NC(=O)[C@H]([C@@H](C)O)NC1=O` [compound 53], the IC50 in assay [1] (setting [3]) is 120 µM.

As for `CC[C@H](C)[C@@H]1NC(=O)[C@@H]2CCCN2C(=O)[C@H](CC(C)C)NC(=O)[C@H](CC(=O)O)NC(=O)[C@H](Cc2ccc(O)cc2)NC(=O)[C@H](CCC(N)=O)NC(=O)[C@H](CCC(N)=O)NC(=O)[C@@H](NC(=O)CCCCCN)CSSC[C@@H](C(=O)N[C@H](CCCCN)C(=O)N[C@H](CCCCN)C(N)=O)NC(=O)[C@H]([C@@H](C)O)NC1=O` [compound 54], in assay [1] (setting [3]), the IC50 turned out to be 120 µM.
